# Experimental data reported in patent US7563771B2, “Synthetic single domain polypeptides mimicking apolipoprotein E” (UAB Research Foundation, priority 2002, dated 2009).
# “Also recorded” adds a separate entry of the source.
# System: erythrocytes
# Experiment: Hemolysis of erythrocytes (hemoglobin content of supernatant, absorbance at 540 nm)
# Type: cell-based
# Details: erythrocytes in PBS, 10 min at 37° C. (FIG. 2)
# Description: This example was performed to test the affect of amino acid residue changes on the lytic nature of peptides of the invention. Lysine residues, which resided on the polar face of the single domain peptide, were substituted with arginine and such altered peptides were tested for lytic ability. Similarly, in other peptides of the invention, lysine residues on the polar face of the single domain peptide of the invention were dimethylated. These altered peptides neutralized the hemolytic property of the 18 L peptide. A suspension of erythrocytes (10^6 cells/ml) in phosphate-buffered saline with and without peptide (10 ml of […] peptide solution) was incubated for 10 min at 37° C. Hemolysis was expressed as hemoglobin content (absorbance at 540 nm) of the supernatant after centrifugation at 16,000×g for 3 min. Hemoglobin content as measured in the presence of 0.1% Triton X-100 was taken as 100% hemolysis.
substance,measurement,value
Ac-DWLKAFYDKVAEKLKEAF-NH2 [18A],"hemolysis / cell lysis, in words",did not cause lysis; also recorded: do not cause cell lysis
